Test results published in ChEMBL document CHEMBL4334470, “Small molecule modulators targeting protein kinase CK1 and CK2” (Eur J Med Chem, 2019).

Chains of the proteins cited; added tags and fusions are not shown. Lines headed by an entry give the natural chain unless they say otherwise; changes in a name come on top.
UniProt P48730: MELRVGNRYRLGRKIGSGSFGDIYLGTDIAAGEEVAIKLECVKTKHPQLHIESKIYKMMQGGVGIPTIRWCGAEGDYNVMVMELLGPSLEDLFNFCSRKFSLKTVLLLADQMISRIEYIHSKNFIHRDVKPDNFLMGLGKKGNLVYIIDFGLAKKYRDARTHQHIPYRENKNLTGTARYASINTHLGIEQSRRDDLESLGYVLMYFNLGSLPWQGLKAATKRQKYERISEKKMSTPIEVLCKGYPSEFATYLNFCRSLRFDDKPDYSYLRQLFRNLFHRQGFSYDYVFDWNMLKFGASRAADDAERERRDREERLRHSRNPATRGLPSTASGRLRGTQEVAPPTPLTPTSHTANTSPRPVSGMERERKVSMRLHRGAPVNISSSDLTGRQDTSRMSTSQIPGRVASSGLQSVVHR

How the values were obtained:
[1] = biological target: Casein kinase I isoform delta (Homo sapiens, UniProt P48730); assay: Inhibition of human CK1delta in presence of [gamma33P]-ATP
[2] = Inhibition of CK2alpha (unknown origin)

Row | IC50 [1] [µM] | Ki [2] [µM] | SMILES
1 | 0.013 |  | CN1Cc2nccc(-c3cn(C)nc3-c3ccc(F)cc3)c2C1=O
2 |  | 0.74 | O=c1cc(-c2ccc(O)cc2)oc2cc(O)cc(O)c12 [APIGENIN]
